In paper PMC11730736 one finds stoichiometry N data, which are given here for 1 substance.

By UniProt entry, the sequences of proteins in these tests, tags left out. Where a name states a change or a piece, a line headed by the entry shows the natural chain unless it says otherwise.
UniProt Q96P20: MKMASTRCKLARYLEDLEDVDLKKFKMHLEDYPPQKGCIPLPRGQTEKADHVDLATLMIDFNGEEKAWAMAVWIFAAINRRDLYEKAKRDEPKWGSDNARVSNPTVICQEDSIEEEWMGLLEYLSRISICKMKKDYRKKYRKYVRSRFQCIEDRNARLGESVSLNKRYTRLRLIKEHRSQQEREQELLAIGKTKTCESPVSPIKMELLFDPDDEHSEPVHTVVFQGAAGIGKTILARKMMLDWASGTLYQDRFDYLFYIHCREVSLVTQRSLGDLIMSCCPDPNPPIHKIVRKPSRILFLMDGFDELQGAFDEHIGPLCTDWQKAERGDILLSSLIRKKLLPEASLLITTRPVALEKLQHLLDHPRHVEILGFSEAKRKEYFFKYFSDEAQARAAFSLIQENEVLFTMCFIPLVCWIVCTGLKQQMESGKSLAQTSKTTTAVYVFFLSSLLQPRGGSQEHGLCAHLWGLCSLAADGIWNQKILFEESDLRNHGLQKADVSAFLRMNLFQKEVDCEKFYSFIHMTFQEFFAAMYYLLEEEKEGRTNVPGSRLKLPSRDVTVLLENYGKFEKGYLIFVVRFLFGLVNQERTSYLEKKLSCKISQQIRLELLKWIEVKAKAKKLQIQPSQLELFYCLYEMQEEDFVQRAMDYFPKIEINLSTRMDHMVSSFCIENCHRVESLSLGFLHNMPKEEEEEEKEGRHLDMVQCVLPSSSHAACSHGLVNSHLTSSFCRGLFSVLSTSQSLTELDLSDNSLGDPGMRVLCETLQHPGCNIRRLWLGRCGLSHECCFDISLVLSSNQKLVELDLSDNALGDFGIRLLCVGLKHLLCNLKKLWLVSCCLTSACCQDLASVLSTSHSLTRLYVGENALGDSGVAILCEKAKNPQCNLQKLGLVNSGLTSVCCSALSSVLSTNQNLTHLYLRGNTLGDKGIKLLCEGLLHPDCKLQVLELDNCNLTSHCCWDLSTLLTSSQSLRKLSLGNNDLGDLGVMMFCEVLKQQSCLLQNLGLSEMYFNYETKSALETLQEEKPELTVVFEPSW

As usually defined, the stoichiometry N is a count of units in the complex or per binding partner.

The target of the assay is MBP-hNLRP3-ΔPYD (NLRP3.136_1036.R137C.K138A.K142A with flag.6His tag on the N-terminus of the MBP) (UniProt Q96P20). The experiment in a line: cryo-EM structure; purified MBP-hNLRP3-ΔPYD with ADP and compound C, 4.4-4.6 mg/ml; 25 mM HEPES pH 7.4, 0.4 M NaCl, 0.2% CHAPS, 0.2 mM TCEP; D2 symmetry imposed.

“MBP-hNLRP3-ΔPYD (NLRP3.136_1036.R137C.K138A.K142A with flag.6His tag on the N-terminus of the MBP) (from UniProt Q96P20 136-1036) (domain or fragment)” yielded a stoichiometry N of 4.
